# In PubChem BioAssay (EPA / NIEHS):
# By UniProt entry, the sequences of proteins in these tests, tags left out. Where a name states a change or a piece, a line headed by the entry shows the natural chain unless it says otherwise.
# UniProt P33261, whole entry, looked up: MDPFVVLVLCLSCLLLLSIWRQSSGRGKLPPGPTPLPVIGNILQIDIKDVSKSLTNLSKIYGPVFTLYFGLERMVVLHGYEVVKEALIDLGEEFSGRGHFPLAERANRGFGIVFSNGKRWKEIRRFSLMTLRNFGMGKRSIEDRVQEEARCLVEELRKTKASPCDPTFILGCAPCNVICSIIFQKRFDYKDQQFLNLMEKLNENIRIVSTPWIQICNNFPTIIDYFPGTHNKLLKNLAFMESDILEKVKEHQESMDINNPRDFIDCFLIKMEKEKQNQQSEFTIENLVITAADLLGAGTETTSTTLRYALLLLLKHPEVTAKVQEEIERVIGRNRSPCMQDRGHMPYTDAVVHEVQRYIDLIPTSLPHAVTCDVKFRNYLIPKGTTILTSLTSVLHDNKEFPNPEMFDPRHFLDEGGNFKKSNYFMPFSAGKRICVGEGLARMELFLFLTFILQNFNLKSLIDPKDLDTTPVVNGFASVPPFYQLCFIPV
# UniProt P08588, whole entry, looked up: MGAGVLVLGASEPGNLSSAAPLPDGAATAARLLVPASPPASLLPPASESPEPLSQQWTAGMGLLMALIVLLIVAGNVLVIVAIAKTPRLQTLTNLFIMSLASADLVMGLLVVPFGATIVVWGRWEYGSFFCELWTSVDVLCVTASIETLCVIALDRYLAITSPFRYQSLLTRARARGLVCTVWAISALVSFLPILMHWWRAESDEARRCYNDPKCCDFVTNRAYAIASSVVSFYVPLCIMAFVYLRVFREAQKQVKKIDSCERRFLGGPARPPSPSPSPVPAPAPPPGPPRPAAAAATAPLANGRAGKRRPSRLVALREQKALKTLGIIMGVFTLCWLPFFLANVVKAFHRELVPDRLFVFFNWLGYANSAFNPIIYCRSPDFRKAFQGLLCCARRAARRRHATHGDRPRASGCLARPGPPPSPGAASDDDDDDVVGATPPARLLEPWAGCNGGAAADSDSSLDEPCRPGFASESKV
# UniProt P03372, whole entry, looked up: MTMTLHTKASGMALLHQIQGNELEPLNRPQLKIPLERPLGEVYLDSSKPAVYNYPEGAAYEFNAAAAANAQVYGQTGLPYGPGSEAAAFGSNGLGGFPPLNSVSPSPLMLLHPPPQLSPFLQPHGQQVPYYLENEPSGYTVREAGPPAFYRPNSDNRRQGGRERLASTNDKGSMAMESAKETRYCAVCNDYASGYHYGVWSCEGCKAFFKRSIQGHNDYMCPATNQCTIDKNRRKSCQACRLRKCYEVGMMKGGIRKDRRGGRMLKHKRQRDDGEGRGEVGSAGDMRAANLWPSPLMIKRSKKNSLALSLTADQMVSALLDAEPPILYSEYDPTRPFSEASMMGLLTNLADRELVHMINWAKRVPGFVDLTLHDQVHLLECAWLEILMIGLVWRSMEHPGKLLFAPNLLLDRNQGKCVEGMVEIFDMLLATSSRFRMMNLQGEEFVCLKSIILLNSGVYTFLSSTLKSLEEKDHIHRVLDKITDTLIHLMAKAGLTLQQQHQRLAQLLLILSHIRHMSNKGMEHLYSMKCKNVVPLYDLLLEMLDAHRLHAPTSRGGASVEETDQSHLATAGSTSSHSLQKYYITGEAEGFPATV
# UniProt Q92731, whole entry, looked up: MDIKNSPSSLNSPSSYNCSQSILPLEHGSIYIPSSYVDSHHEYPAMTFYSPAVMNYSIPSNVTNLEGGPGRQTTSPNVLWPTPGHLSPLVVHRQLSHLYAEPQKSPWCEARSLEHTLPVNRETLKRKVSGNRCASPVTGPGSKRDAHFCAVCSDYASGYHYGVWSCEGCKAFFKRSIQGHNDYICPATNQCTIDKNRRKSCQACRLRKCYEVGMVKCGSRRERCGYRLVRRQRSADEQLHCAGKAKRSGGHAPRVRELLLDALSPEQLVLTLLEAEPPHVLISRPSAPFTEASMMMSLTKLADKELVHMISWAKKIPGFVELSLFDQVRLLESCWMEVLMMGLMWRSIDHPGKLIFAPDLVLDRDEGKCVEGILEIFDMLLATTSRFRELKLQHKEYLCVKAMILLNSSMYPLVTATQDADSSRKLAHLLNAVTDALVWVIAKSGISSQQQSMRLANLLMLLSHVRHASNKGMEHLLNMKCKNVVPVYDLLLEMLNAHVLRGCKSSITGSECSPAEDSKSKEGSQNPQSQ
# UniProt Q96RI1: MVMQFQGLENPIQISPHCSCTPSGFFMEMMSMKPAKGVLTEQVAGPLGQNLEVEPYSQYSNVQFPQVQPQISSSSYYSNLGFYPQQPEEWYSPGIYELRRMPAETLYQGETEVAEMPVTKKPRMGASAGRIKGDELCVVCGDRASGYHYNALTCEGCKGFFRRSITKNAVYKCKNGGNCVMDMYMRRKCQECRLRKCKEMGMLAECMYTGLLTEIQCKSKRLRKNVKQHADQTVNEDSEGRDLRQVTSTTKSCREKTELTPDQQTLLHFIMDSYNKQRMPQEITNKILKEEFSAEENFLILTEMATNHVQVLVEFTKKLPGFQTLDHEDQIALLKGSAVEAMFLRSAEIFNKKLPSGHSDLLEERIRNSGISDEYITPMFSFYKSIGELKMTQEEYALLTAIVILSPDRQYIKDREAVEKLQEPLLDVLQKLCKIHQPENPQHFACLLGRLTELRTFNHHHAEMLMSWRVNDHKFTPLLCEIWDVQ
# For part of these data: This list holds what a sample rich in hits left over. Records with an inconclusive call do not appear. The list shows a part of the results, in another mix than the full data. The source made the active and inactive calls. Rule for the calls: active = hit-call score of the fitted dose curve at least 0.9, where 1 is the maximum; inconclusive = response in the unintended direction; inactive = score below 0.9.
# How the values were obtained:
# [1] = target: Cytochrome P450 2C19 (Homo sapiens) (UniProt P33261); assay: NVS_ADME_hCYP2C19: NovaScreen (NVS) CYP450-related Enzyme Activity (ADME) Assay for human CYP2C19 (AID 2283113);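 note: potency for inhibition seen as loss of fluorescent signal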
# How it was run: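 Compounds first screened in duplicate at 10 uM, then confirmed in concentration series. Insect-cell-expressed human CYP2C19 turned over a fluorogenic substrate, and fluorescence was read after 1 h. Inhibition taken as signal loss relative to acetonitrile.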
# [2] = target: human Adrenergic, Beta 1 Receptor (Adrb1), ADRB1 (gene 153) (UniProt P08588); assay: NVS_GPCR_hAdrb1: NovaScreen (NVS) G Protein-Coupled Receptor Assay for human Adrenergic, Beta 1 Receptor (Adrb1) (AID 2283258)
# How it was run: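 Membranes/protein extracted from human neuroepithelioma cells, radioligand competition binding read by filtration and scintillation 2 h post-dose. Single 25 uM duplicate screen, then concentration-response follow-up; DMSO as negative control.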
# [3] = target: Beta-2 adrenergic receptor (Homo sapiens) (UniProt P07550); assay: NVS_GPCR_hAdrb2: NovaScreen (NVS) G Protein-Coupled Receptor Assay for human Adrenergic, Beta 2 Receptor (Adrb2) (AID 2283261)
# How it was run: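 Compounds screened in duplicate at 25 uM, then actives in concentration series. Human beta-2 receptor from CHO material, cell-free; radioligand displacement after 1 h measured by filtration and scintillation against DMSO baseline.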
# [4] = target: T1, Estrogen receptor (Homo sapiens) + Estrogen receptor beta (Homo sapiens) (UniProt P03372+Q92731); assay: OT_ER_ERaERb_0480: Odyssey Thera (OT) 8-hour HEK293T Protein-Complementation Assay for Estrogen Receptor-alpha/-beta Heterodimer (AID 2283352)
# How it was run: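 Fluorescence increase from reconstituted reporter fragments, quantified by laser scanning cytometer, reflects ER-alpha/ER-beta heterodimer formation in human HEK293T cells. Exposure 8 h; positive-direction fitting against DMSO vehicle.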
# [5] = target: T1, Estrogen receptor (Homo sapiens) + Estrogen receptor beta (Homo sapiens); assay: OT_ER_ERaERb_1440: Odyssey Thera (OT) 24-hour HEK293T Protein-Complementation Assay for Estrogen Receptor-alpha/-beta Homodimer (AID 2283356);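 note: heteromer of ER alpha and ER beta binding domains; hits raise reporter fluorescence and both agonists and antagonists give an increase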
# How it was run: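 Fragment complementation between ER alpha (310-547) and ER beta (263-489) ligand-binding domains in HEK293T cells; signal read 24 h post-dosing by laser scanning cytometer. Gain of fluorescence relative to DMSO fitted.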
# [6] = target: Bile acid receptor (Homo sapiens) (UniProt Q96RI1); assay: OT_FXR_FXRSRC1_0480: Odyssey Thera (OT) 8-hour HEK293T Protein-Complementation Assay for Farnesoid X receptor/SRC-1 Co-activator (AID 2283383)
# How it was run: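 Binding of FXR to coactivator SRC-1 was read as fluorescence from a reconstituted split reporter in HEK293T cells, 8 h after chemical addition. Only increases in signal versus DMSO were fit.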
# [7] = target: Bile acid receptor (Homo sapiens) (UniProt Q96RI1); assay: OT_FXR_FXRSRC1_1440: Odyssey Thera (OT) 24-hour HEK293T Protein-Complementation Assay for Farnesoid X receptor/SRC-1 Co-activator (AID 2283384)
# How it was run: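 Protein-fragment complementation: FXR and SRC-1 fused to reporter fragments that reassemble on interaction, read by fluorescence intensity. Human HEK293T cells measured 24 h post-dose; positive-direction fit versus DMSO.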
# [8] = TOX21_p53_BLA_p2_viability: Viability Assessment in the Tox21 HCT-116 p53 Agonism Beta-lactamase Assay, Phase 2 (AID 2283591);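 note: compound exposure lasted 16 h at 37 °C; actives lower the ATP signal meaning cytotoxicity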
# How it was run: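 HCT-116 p53-bla cells (4000/well) rested 5 h at 37C, then received compounds in DMSO (217-fold dilution) for 16 h at 37C, 5% CO2. After the CCF4 read, CellTiter-Glo was added; ATP luminescence was read after 30 min at room temperature.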
# [9] = TOX21_p53_BLA_p5_viability: Viability Assessment in the Tox21 HCT-116 p53 Agonism Beta-lactamase Assay, Phase 5 (AID 2283600)
# How it was run: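 Viability came from CellTiter-Glo ATP luminescence, read after 30 min at room temperature. Before this, HCT-116 p53-bla cells (4000/well) had 16 hours of compound exposure at 37C, with DMSO stocks diluted 217-fold on transfer.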
# [10] = TOX21_PR_BLA_Followup_Agonist_viability: Viability Assessment in the Tox21 HEK293 Progesterone Receptor (PR) Agonism Beta-lactamase Follow-Up Assay (AID 2283935);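 note: signal loss means lower viability so actives are cytotoxic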
# How it was run: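 Run multiplexed with the beta-lactamase FRET read, this endpoint measures ATP by CellTiter-Glo luminescence (30 min, room temperature). PR-UAS-bla HEK293T cells received compound 6 hr after plating and were then incubated 16 hr at 37C in 2% stripped serum.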
# [11] = TOX21_PR_BLA_Followup_Antagonist_viability: Viability Assessment in the Tox21 HEK293 Progesterone Receptor (PR) Antagonism Beta-lactamase Follow-Up Assay (AID 2283936);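 note: cells exposed to compound with R5020 agonist for 16 h; hits lower the luminescence signal meaning cytotoxicity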
# How it was run: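 PR-UAS-bla HEK293T cells in medium with 2% charcoal-stripped FBS were treated with compounds plus R5020 for 16 hr at 37C. After the beta-lactamase read, CellTiter-Glo was added to the same wells and luminescence read after 30 min at room temperature.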
# [12] = TOX21_TR_RXR_BLA_Antagonist_Followup_viability: Viability Assessment in the Tox21 Thyroid Hormone Receptor beta Retinoid X Receptor alpha (RXRa) Antagonism Beta-lactamase (BLA) Follow-Up Assay (AID 2283979)
# How it was run: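 RXRa-UAS-bla HEK293T cells seeded 2,500/well in phenol red-free DMEM with 2% charcoal-stripped FBS, attached 5 h, then exposed to compounds at 11 concentrations in triplicate for 16 h at 37C/5% CO2. Viability read by CellTiter-Glo ATP luminescence; bidirectional fit versus DMSO.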
structure (smiles),measurement,setting,value
CCN(CC)C(=S)SSC(=S)N(CC)CC,AC50,[1],active: 1.2 µM
OC(Cn1cncn1)(Cn1cncn1)c1ccc(F)cc1F,AC50,[1],active: 1.52 µM
CCc1c(C(=O)NN2CCCCC2)nn(-c2ccc(Cl)cc2Cl)c1-c1ccc(Br)cc1,AC50,[2],active: 3.3 µM
same,AC50,[3],active: 6.64 µM
[O-]/[N+](=N\O)c1ccccc1,outcome,[4],inactive
same,outcome,[5],inactive
CC(CO)OC(C)CO (stereo not drawn) (tested in a mixture with another compound),outcome,[4],inactive
same,outcome,[5],inactive
N=C(N)c1ccc(OCCCCCOc2ccc(C(=N)N)cc2)cc1,outcome,[6],inactive
same,AC50,[7],active: 52.2 µM
COCCOc1cc2cc(C(=O)NC3CCN(C(C)C)CC3)n(CC(=O)Nc3ccc(Cl)cn3)c2cn1,outcome,[6],inactive
same,outcome,[7],inactive
CNC[C@@H]1CC[C@@H](N)[C@@H](O[C@H]2[C@H](O)[C@@H](O[C@H]3OC[C@](C)(O)[C@H](NC)[C@H]3O)[C@H](N)C[C@@H]2N)O1,outcome,[8],inactive
C[C@@H]1O[C@@H]1P(=O)(O)O,outcome,[8],inactive
Nc1ccc(N)c(Cl)c1,outcome,[9],inactive
C[C@]12CC[C@@H]3c4ccc(O)cc4C[C@@H](CCCCCCCCCS(=O)CCCC(F)(F)C(F)(F)F)[C@H]3[C@@H]1CC[C@@H]2O (stereo partly drawn),outcome,[10],inactive
same,outcome,[11],inactive
C#C[C@]1(O)CC[C@H]2[C@@H]3CCC4=CC(=O)CC[C@@H]4[C@H]3C(=C)C[C@@]21CC,outcome,[12],inactive
